For one substance, fold reduction of bound LC3B-II against HA–FAM134B WT results are on record in publication PMC10247366.

For this experiment, the target named is HA–FAM134B 17KR (UniProt Q9H6L5). The experiment can be described thus: co-IP; HA–FAM134B IP (HA-agarose beads, overnight at 4 °C) from HEK 293T lysate (50 mM Tris-HCl pH 7.5, 150 mM NaCl, 0.5 mM EDTA, 1% Triton X-100, NEM), cells co-transfected with Myc–Ub; immunoblot for endogenous LC3B-II, densitometry. In general terms: A western blot detects proteins with antibodies after separation by electrophoresis.

“LC3B-II (from UniProt Q9GZQ8 1-120) (natural protein)” had a fold reduction of bound LC3B-II against HA–FAM134B WT of 1.32 fold.
